In the assay the test system is miR124. In words: Effect of the compound on miR124 upregulation in PBMCs (qPCR, U6 as internal reference). The assay is classed as cell-based, human. The following applies: miR-124 expression, 5 µM, 6 days, batches normalized. (Real-time PCR tracks product formation cycle by cycle.)

The structures appear in SMILES notation.

The source of these data is patent EP4772506A1, “COMPOUND FOR REGULATING ACTIVITY OF MICRORNA-124” (Jiangsu Chia Tai Fenghai Pharmaceutical Co., Ltd., priority 2023, dated 2025).

For `CN(C)CCN(C)c1cc(Cl)cc2nc(Nc3ccc(OC(F)(F)F)cc3)ncc12` [Compound 44], the “Average fold change compared to DMSO treatment, Average value” is 4.89.
For the compound `FC(F)(F)Oc1ccc(Nc2ncc3c(N4CCOCC4)cc(Cl)cc3n2)cc1` [Compound 45], the “Average fold change compared to DMSO treatment, Average value” was determined as 8.29.
